In patent US10016408B2, “Chemokine CXCR4 receptor modulators and uses related thereto” (EMORY UNIVERSITY, priority 2010, dated 2018):

Tested on: PBM cells
Details: read-out: PBMC TC50; PBM cells run in parallel for cytotoxicity
Procedure: To test efficacy of selected compounds, peripheral mononuclear cell assays are performed. Cells are infected for 6 days with live HIV IIIB virus and PBM cells are run in parallel for cytotoxicity testing, with or without selected agents. Efficacy of compounds as antagonists of the sdf-1 ligand to CXCR4 receptors was determined in I^125 labeled sdf-1 displacement assays from CXCR4-expressing CEM cells are performed.

**Q.** With Maraviroc as the substance, how does the CC50 read?
**A.** Its CC50 is over 2000 nM.
